The chains behind the UniProt entries cited, without tags or fusion partners. Residues count along the entry.
UniProt P61088, whole entry: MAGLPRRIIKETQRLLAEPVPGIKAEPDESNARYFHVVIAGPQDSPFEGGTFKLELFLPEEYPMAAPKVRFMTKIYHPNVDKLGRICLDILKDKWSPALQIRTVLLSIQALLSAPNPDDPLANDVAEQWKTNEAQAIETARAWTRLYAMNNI
UniProt Q13404, 2-147 partner limits assumed: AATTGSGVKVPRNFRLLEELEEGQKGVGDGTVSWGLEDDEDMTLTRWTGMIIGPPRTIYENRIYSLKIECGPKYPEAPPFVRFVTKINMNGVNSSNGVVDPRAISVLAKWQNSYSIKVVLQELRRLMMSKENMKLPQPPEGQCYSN

According to article PMC2894972, “Protein-Protein Interaction Antagonists as Novel Inhibitors of Non-Canonical Polyubiquitylation” (PLoS ONE, 2010):

Experiments:
Ubc13-Uev1 heterodimer = Ubc13-Uev1 heterodimer (Homo sapiens, UniProt P61088); experiment: surface plasmon resonance competition: Ubc13 preincubated with compound, injected over immobilized Uev1; conditions: inhibition of Ubc13-Uev1 interaction; Ubc13 400 nM; 10 mM HEPES, 0.15 M NaCl, pH 7.4; legend prints 10 pM
Ubc13 = Ubc13 (Homo sapiens, UniProt P61088); experiment: surface plasmon resonance, lysine derivative of Ia immobilized on the chip, Ubc13 in mobile phase; conditions: read-out: dissociation constant; labelled compound: lysine derivative immobilized on CM chip; value printed as that of compound Ia

Row | Structure (SMILES) | IC50 (Ubc13-Uev1 heterodimer) [pM] | Kd (Ubc13) [pM]
1 | NC(=O)CN(CCc1ccccn1)C(=O)C1CC(=O)N(CCc2ccc(F)cc2)CC(=O)N1CCc1ccc(F)cc1 (centres unmarked) | 10 | 
2 | NCCCCC(NC(=O)CN(CCc1ccccn1)C(=O)C1CC(=O)N(CCc2ccc(F)cc2)CC(=O)N1CCc1ccc(F)cc1)C(N)=O (centres unmarked) |  | 4.4
